Values of other authors in paper PMC8348686, “The Pharmacological Profile of Second Generation Pyrovalerone Cathinones and Related Cathinone Derivative” (International Journal of Molecular Sciences, 2021).

The chains behind the UniProt entries cited, without tags or fusion partners. Residues count along the entry.
UniProt P28335, 33-458: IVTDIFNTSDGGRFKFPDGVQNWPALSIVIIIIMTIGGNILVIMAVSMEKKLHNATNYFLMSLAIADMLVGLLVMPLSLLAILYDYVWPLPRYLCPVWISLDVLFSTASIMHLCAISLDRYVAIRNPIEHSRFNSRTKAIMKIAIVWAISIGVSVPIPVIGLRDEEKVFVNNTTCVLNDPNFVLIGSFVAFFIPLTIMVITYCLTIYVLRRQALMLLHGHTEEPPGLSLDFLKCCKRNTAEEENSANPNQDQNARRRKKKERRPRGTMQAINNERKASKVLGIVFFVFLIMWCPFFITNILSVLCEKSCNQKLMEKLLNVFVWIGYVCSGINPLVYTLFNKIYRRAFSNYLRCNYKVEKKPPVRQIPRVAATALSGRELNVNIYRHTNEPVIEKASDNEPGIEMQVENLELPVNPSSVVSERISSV

Target: T1, h5-HT2C receptor (Homo sapiens, UniProt P28335)
T1 construct: expressed in transfected cells; host or cells: HEK293 cell preparations
Details: [3H]-Mesulgerine; ref Luethi, Kolaczynska et al. (2019); read-out: h5-HT2C Receptor Binding Ki ± SD; cited from earlier work

For `CNC(C)Cc1ccc2c(c1)OCO2` (stereo not shown) [MDMA, 3,4-methylenedioxymethamphetamine, reference compound], the Ki is given as 4.4 ± 0.8 µM.
